# Paper PMC7383964 (Chemmedchem, 2020)
# Target: human δ‐OR (Homo sapiens, UniProt P41143)
# Test: Radioligand competition binding with [^3H]diprenorphine, membranes of transiently transfected HEK293T cells
# Settings: read-out: K D of the radioligand for δ‐OR
substance,measurement,value
[^3H]diprenorphine,pKd,9.62

# pKd: −log10 of the molar value. This is a selection: effects in other tests are not listed, and their absence says nothing.
